Data on six substances can be found in US9675715B2, “Contrast agent for photoacoustic imaging” (CANON KABUSHIKI KAISHA, priority 2012, dated 2017).

Entries after “also recorded” stand apart in the source; their conditions may differ.

One data set has as its system Colon 26 cells tumor. The data set is described as follows: Accumulation of contrast agent in Colon 26 tumor, dye extraction and fluorescence. In kind it is in vivo, mouse. The note with it: intravenous, 13 nmol in terms of ICG, 24 hours. The protocol: Tumor model mice were prepared by subcutaneously implanting Colon 26 cells into BALB/c Slc-nu/nu mice.
Tumor model mice were prepared by subcutaneously implanting Colon 26 cells into BALB/c Slc-nu/nu mice. […] Furthermore, in this example, an aqueous solution of ICG (available from Pharmaceutical and Medical Device Regulatory Science of Japan) was used as a control sample.

A short description of data set [1]: Blood accumulation in Colon 26 tumor model mice. In kind it is in vivo, mouse. The note with it: intravenous, 13 nmol in terms of ICG. The protocol:
Tumor model mice were prepared by subcutaneously implanting Colon 26 cells into BALB/c Slc-nu/nu mice. The aqueous ICG-HSA solutions were intravenously injected in volumes of 100 microliters each (13 nmol in terms of ICG) into the tumor model mice to evaluate the tumor accumulation. Furthermore, in this example, a compound was synthesized by the reaction of ICG-Sulfo-OSu with glycine in a molar ratio of 1:1 (hereinafter, abbreviated as “ICG-Gly”) and used as a control sample.
Tumor model mice were prepared by subcutaneously implanting Colon 26 cells into BALB/c Slc-nu/nu mice. The aqueous ICG-HSA solutions were intravenously injected in volumes of 100 microliters each (13 nmol in terms of ICG) into the tumor model mice to evaluate the tumor accumulation. Furthermore, in this example, an aqueous solution of ICG (available from Pharmaceutical and Medical Device Regulatory Science of Japan) was used as a control sample.
Table 8 describes the accumulation in the Colon 26 cell mass 24 hours after the administration of the aqueous ICG-HSA solutions and the control.

The nature of data set [2]: Hydrodynamic average particle size by dynamic light scattering. The data set is classed as physicochemical. The note with it: DLS-8000. The text has this:
In this embodiment, the particle size of the particles may be determined by measuring the hydrodynamic average particle size using the dynamic light scattering (DLS) method with a dynamic light scattering spectrophotometer (DLS-8000, manufactured by Otsuka Electronics Co., Ltd).
As comparative examples, the average particle sizes of ICG (available from Pharmaceutical and Medical Device Regulatory Science of Japan), HSA, ICG-HSA (7)-encapsulating liposome particles, and ICG-encapsulating micellar particles are also described. […] The ICG-encapsulating micellar particles refer to micellar particles in which ICG is contained in surfactant micelles by a known emulsification technique.

The test system of data set [3] is sentinel lymph node (mouse popliteal lymph node). The experiment in a line: Photoacoustic imaging of sentinel lymph node after subcutaneous plantar administration. In kind it is in vivo. The protocol:
A commercially available photoacoustic imaging apparatus (Nexus128, manufactured by Endra Inc.) was used. Photoacoustic signals were measured at predetermined timings before and after the administration of a prepared contrast agent for PAI, and three-dimensional reconstruction data was acquired for each timing. The photoacoustic signal intensity in a region of interest (ROI) was measured on the basis of the resulting three-dimensional reconstruction data using software (GEHC MICROVIEW, GE Healthcare) or the like.
In examples of the present invention, the transfer of the contrast agent for PAI into a sentinel lymph node (SLN) was evaluated by the use of a mouse popliteal lymph node. Ten microliters of the contrast agent was administered subcutaneously into the plantar surface of a nude mouse. Photoacoustic imaging of the mouse popliteal lymph node was performed after 1 day.
The accumulation in a sentinel lymph node (SLN) was evaluated by photoacoustic imaging. […] Then an evaluation was made as to whether the sentinel lymph node was visualized 1 day after the administration by photoacoustic imaging. […] After the measurement, the SLN was removed. The removed SLN and an SLN into which no contrast agent was administered were juxtaposed to each other and subjected to photoacoustic imaging. FIG. 3 illustrates the results.

Data set [4] has as its system HER2-positive N87 cell line tumor. The experiment in a line: HER2-specific tumor accumulation, HER2-positive N87 tumor. The data set is classed as in vivo, mouse. The note with it: 1 day after administration. The protocol:
(§1) To check HER2-specific tumor accumulation of the molecular probes (ICG-HSA, scFv-ICG-HSA, and scFv-HSA-ICG) prepared as described above, an experiment was performed as described below. The molecular probes were administered to tumor-bearing model mice into which the HER2-positive N87 cell line and the HER2-negative SUIT-2 cell line were implanted. The tumors were removed 1 day after the administration. To the tumors, 1% Triton X-100 was added. The mixtures were homogenized. Dimethyl sulfoxide (DMSO) was added to each resulting homogenate in an amount 9 times the amount of the homogenate, thereby preparing a solution. The fluorescence intensity of these solutions was measured to calculate the tumor accumulation [% ID/g] per tumor weight of the molecular probes administered to the mice. Furthermore, a value obtained by dividing the tumor accumulation in N87 by the tumor accumulation in SUIT-2 (N87/SUIT-2) was calculated as a value indicating HER2 specificity. […] The reason for this is as follows: scFv-HSA-ICG-7 and scFv-HSA-ICG-21 had the same HER2-binding capacity. Thus, for example, labeling with a large number of ICG molecules possibly promoted hepatic elimination with ICG.

The subject of data set [5] is HER2-negative SUIT-2 cell line tumor. The experiment in a line: HER2-specific tumor accumulation, HER2-negative SUIT-2 tumor. The note with it: 1 day after administration. The data set is classed as in vivo, mouse. As for the experimental part: as §1
In data set [6] the target is T1, HER2 (Recombinant Human ErbB2/Fc Chimera) (Homo sapiens, UniProt P04626).
T1 construct: Fc (immunoglobulin Fc fusion partner); purchased R&D Systems, Inc
The data set is described as follows: Binding affinity for HER2 by surface plasmon resonance (ProteOn XPR36). The note with it: SPR, Table 11 (combinations of HER2-binding molecules and linkers). A general note: In SPR one partner is held on a chip, and binding of the other changes the refractive index at the surface.

Data set [7] has as its system Colon 26 mouse colon cancer cells into which the HER2 gene was transferred. The experiment in a line: Accumulation in Colon 26 tumor into which the HER2 gene was transferred. The note with it: intravenous, 13 nmol in terms of ICG, 24 hours after administration. In kind it is in vivo. The text has this: In the evaluation of tumor accumulation, female outbred BALB/c Slc-nu/nu mice (6 weeks old on purchase) (Japan SLC Inc.) were used. The mice were acclimated using standard feeds and beddings and given food and drinking water ad libitum for 1 week before cancer cells were transplanted. At approximately 1 week before an imaging experiment, 1×10^6 Colon 26 mouse colon cancer cells (Riken, Japan) were subcutaneously injected into the right shoulder and the right thigh of each mouse, and 1×10^6 Colon 26 mouse colon cancer cells into which the HER2 gene was artificially transferred were subcutaneously injected into the left shoulder and the left thigh of each mouse. Tumor cells had been all established by the time of the experiment. The body weights of the mice were between 17 and 22 g. Then 200 microliters (13 nmol in terms of ICG) of HER2-binding-molecule-immobilized ICG-HSA or ICG-HSA to which nothing was immobilized was intravenously injected into the tumor-bearing mice. The mice were euthanized with carbon dioxide 24 hours after administration. […] The fluorescence intensity of the solutions of the dye extracted from the tumor tissues and the standard solutions for calibration was measured with the solutions in the tubes using IVIS (registered trademark) Imaging System 200 Series (XENOGEN Corporation) to quantitatively determine the amount of the dye in the tumor tissues. […]

Turning to ICG-HSA (1), in the data set with Colon 26 cells tumor, the “Tumor accumulation 1 day after administration” value (“Tumor accumulation 1 day” for short) was 8.9 % ID/g. The “Blood accumulation 1 day after administration” value (“Blood accumulation 1 day” for short) in data set [1] turned out to be 4.0 % ID/g.

In the case of human serum albumin [HSA], the “Hydrodynamic average particle size” value in data set [2] stood at 7.7 nm.

ICG-HSA (7): the “Hydrodynamic average particle size” value in data set [2] is recorded as 20 nm. Also, the “Photoacoustic signal from removed SLN” value in data set [3] (SLN removed 1 day after administration, compared with unadministered SLN (FIG. 3)) was “significant photoacoustic signal was observed”. In data set [3] (photoacoustic imaging 1 day after subcutaneous administration into plantar surface of nude mouse, 130 nmol dye), the “Visualization of SLN” value is listed as “clearly visualized; also recorded: visualizable”. For the same substance, the “Tumor accumulation 1 day” value in the data set with Colon 26 cells tumor came out at 19.7 % ID/g. Further, the “Blood accumulation 1 day” value in data set [1] turned out to be 2.3 % ID/g.

For ICG-HSA (17.5), the “Tumor accumulation 1 day” value with Colon 26 cells tumor was found to be 3.0 % ID/g. In data set [1], the “Blood accumulation 1 day” value amounted to 0.2 % ID/g.

Consider ICG-HSA (50), for which, in the data set on Colon 26 cells tumor, the “Tumor accumulation 1 day” value came to 1.8 % ID/g. Besides, the “Blood accumulation 1 day” value in data set [1] was 0.5 % ID/g.

ICG-HSA: the “Tumor accumulation (after 1 day) N87” value in data set [4] is reported as 3.1 % ID/g. The “Tumor accumulation (after 1 day) SUIT-2” value in data set [5] amounted to 3.0 % ID/g. For the same substance, the “Binding affinity to HER2 (KD)” value in data set [6] is on record as “unmea-”. In data set [7], this substance showed an HER2-positive tumor accumulation of 9.6 % ID/g.
